Binding of CDR-mutated scFvs to a peptide of the spike HR2 region

From the AlphaSeq antibody data of Li et al. 2023 (doi:10.1038/s41467-023-39022-2), copy in the FLAb collection.

All variants were tested on one target, the spike HR2 peptide PDVDLGDISGINAS (SARS-CoV-2).

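Phage display of a naive human antibody library on the peptide gave the parent. These sequences belong to a second round, designed from the earlier measurements on random variants of the parent. Group labels follow the data file (Ctrl: baseline library sampled from a position-specific scoring matrix, with some repeated check sequences; En: ensemble of fine-tuned language models; GP: Gaussian process model; HC: hill climbing; Gen: genetic algorithm; Gibbs: Gibbs sampling; a sequence that several methods proposed may carry one label only). The assay is AlphaSeq: two haploid yeast populations carry antibody and antigen on their surface. The frequency of each diploid, read from paired DNA barcodes, reflects how well the two displayed proteins bind. Each replicate has its own calibration line, from reference interactions of the BCL2 family. Each pool was mated in six replicate cultures.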

Each scFv is VH, a (GGGGS)3 linker, VL, as in the parent Ab-14, and differs from it in the CDRs of the light chain only.
VH: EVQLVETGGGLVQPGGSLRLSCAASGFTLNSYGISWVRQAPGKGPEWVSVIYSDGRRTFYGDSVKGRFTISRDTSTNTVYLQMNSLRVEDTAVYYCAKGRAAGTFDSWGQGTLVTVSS
VL: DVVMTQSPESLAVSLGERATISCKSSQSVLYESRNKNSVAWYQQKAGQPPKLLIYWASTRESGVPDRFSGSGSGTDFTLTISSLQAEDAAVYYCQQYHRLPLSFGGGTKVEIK

Each variant is given by its three light chain CDRs, as the data file delimits them; those of the parent are KSSQSVLYESRNKNSVA, WASTRES, QQYHRLPLS. Values are log10 of the apparent Kd in nM; lower means stronger binding. Averages over replicates are reported, and they cover detected replicates only. Where no diploid with the target was found in that replicate, the entry reads "n.d.": below detection, most likely a poor binder, though not proof of it. The authors averaged sequences with at least three values out of six and counted those with two or fewer as poor binders.

log10 Kd (nM) by replicate	mean, log10 nM	CDR-L1	CDR-L2	CDR-L3	group
0.56 0.87 0.55 0.80 1.20 1.39	0.90	KSSKSVLYEMRQKNSVA	NASERED	QTYHRLPLS	Ctrl
-0.19 -0.31 -0.57 -0.48 -0.48 -0.23	-0.38	KLEQSHLYESRNKNAVA	NASQRES	QQYHRLPLS	GP_Gen
0.60 1.75 0.57 0.38 0.65 0.67	0.77	KFSGSFLYWSRNSNAVA	EASTRES	QDYHRLPLS	GP_Gibbs
1.41 1.39 1.44 1.02 2.02 1.55	1.47	QISLNGWDGEPYEYAVA	EGTIKDA	QQYSRLPLS	En_Gibbs
0.61 0.74 0.63 0.74 0.71 0.76	0.70	HMSMLTLGGMRHKNSVA	QMTTREN	QQYDHLPLS	En_Gen
n.d. n.d. n.d. n.d. 4.06 n.d.	4.06	KSSQSVLYESRNKNSVA	HASTRES	QQYHRTPLS	Ctrl
0.35 0.02 0.30 0.46 0.26 0.18	0.26	KLSQMVDYLSRNMNNVA	NASTRES	QDYHRLPLS	GP_Gibbs
0.11 -0.01 0.24 -0.22 0.27 0.03	0.07	KGPQWQLYESRNKNNVA	NASTREM	QQYHRLPLS	GP_Gibbs
0.37 0.18 0.07 0.16 0.06 0.25	0.18	KIGHTLNTLYEKANNVA	DLVTREN	QQYHRLPLS	En_Gen
1.84 0.98 1.14 0.91 1.12 1.51	1.25	KVEEEGDVFARIDNSVA	EMSMVLD	QQYHRLPLA	En_Gibbs
0.24 -0.01 0.00 0.06 0.29 0.47	0.18	HLSQSWLYESRNKNSVA	GGNTRES	QQYHRLPLS	GP_HC
0.03 0.11 -0.15 -0.18 -0.09 0.23	-0.01	FLSQSELYESRNKNSVA	NASTRLS	QQYHRLPLS	GP_Gen
1.76 2.28 3.49 1.63 1.48 1.36	2.00	KSSQSVLEESRNKNSVA	WASTRES	QQYHKLPLS	Ctrl
0.31 0.14 -0.25 0.37 -0.44 -0.26	-0.02	KQSQSVLMESRNVNSVA	DASTRES	QQYHRLPLS	GP_HC
0.55 0.23 0.26 0.26 0.33 0.36	0.33	SLTAHHQGAKSAENSIA	NAVMLQS	QQYHQLPLM	En_Gibbs
0.34 0.03 0.01 -0.24 -0.22 -0.02	-0.02	KLQQSQEYESRNKNSVA	NASQRES	QQYHRLPLS	GP_Gen
-0.30 -0.21 -0.42 -0.54 -0.17 -0.11	-0.29	KFSQSVLYESRNKNSVA	NASTREA	QQYHRLPLS	GP_HC
0.27 0.02 0.09 -0.12 0.21 0.21	0.11	KCLQSVLYESRNKNSVA	HASTRED	QQYHRLPLS	GP_HC
-0.24 -0.52 -0.54 -0.54 -0.60 -0.37	-0.47	KLDQSQLYESRNKNSVA	NASQRLS	QQYHRLPLS	GP_Gen
2.50 2.34 0.94 1.79 3.54 2.97	2.35	MLSQMTGLGQKVRNSVA	QASMRFN	QQYHRLPLM	En_Gen
n.d. n.d. n.d. n.d. n.d. 1.32	1.32	KSSQSVGAESRTKNSVA	WASTRES	QQYNRLPLS	Ctrl
0.54 0.36 0.54 0.22 0.57 0.63	0.48	KMSQSVWMESRNKNSVA	DASTRES	QQYHRLPLS	GP_Gen
0.22 0.19 0.11 0.08 0.17 0.35	0.19	KFSQMANYESTHVNAVA	QMSTREE	QQYHRLPLS	En_HC
0.18 0.24 0.00 -0.05 0.18 0.36	0.15	KMSQSNDYEERNDNAVA	NASQREM	QQYHRLPLS	GP_Gibbs
-0.28 -0.27 -0.26 -0.37 -0.30 -0.17	-0.28	KVSQSDLYESRNKNAVA	GASTRES	QQYHRLPLS	GP_HC
0.03 0.04 -0.07 -0.04 -0.14 0.29	0.02	KIGATLNTLEHKQNNVA	DLVTREN	QQYFRLPLS	En_Gen
0.45 0.20 0.19 -0.14 0.15 0.37	0.20	KFSQSVLMESRTSNRVA	NASTRES	QQYHRLPLS	GP_HC
0.54 0.20 0.43 0.08 0.23 0.78	0.38	KSYYSFLYESRNKNSVA	EASTRES	QQYHRLPLS	GP_HC
0.52 0.52 0.28 0.38 0.44 0.69	0.47	MISDLMLYGSRKNNPIA	NAETREY	QQYHRLPLE	En_HC
1.70 1.59 1.71 1.51 2.08 1.34	1.65	LISGVWDYGSRNYNSVA	QTSTREN	QQYDRLPLE	En_HC
-0.53 -0.31 -0.72 -0.69 -0.49 -0.35	-0.52	KLSGSWLYESRNKNSVA	HASTRES	QQYHRLPLS	GP_Gen
2.43 n.d. 3.25 n.d. 1.46 2.35	2.37	KLSYSVLYESRNKNSVA	EASTRES	QYYHRLPLS	Ctrl
0.70 0.81 0.58 0.54 0.51 0.60	0.62	KLSQSVGMQSRNKWSVA	NASTRES	QQYHRLPLS	GP_Gibbs
n.d. 2.54 n.d. 2.66 n.d. n.d.	2.60	KSSQSVLWSSRNKNSVA	WASTRFS	QQYHRLPLS	Ctrl
0.74 0.34 0.48 0.66 0.46 0.51	0.53	MFSQSVMYGSRYRNSVA	QTSTRES	QQYDRLPLS	En_HC
0.03 0.19 -0.05 -0.15 -0.19 0.25	0.01	KSSWSVLGESRWKNSVA	DASTRSS	QQYHRLPLS	GP_HC
0.64 0.65 0.62 0.65 0.36 0.98	0.65	RLRFQDLMWSYDANNIA	GATLSIE	QQYGRLPLT	En_Gibbs
1.23 0.74 0.81 0.57 1.04 1.13	0.92	KISASVNYEMVNGQSVA	QMSTREE	QQYDRLPLS	En_HC
n.d. n.d. 1.23 n.d. 1.90 n.d.	1.56	KLQQSTKYESRNQNSVA	WASTRES	QQYHRLPLS	GP_HC
0.02 -0.18 -0.06 -0.26 -0.23 -0.03	-0.12	KVSQLNLYESRNANNVA	NGSLRES	QQYHRLPLS	GP_Gibbs
1.06 0.71 0.48 0.92 0.85 1.21	0.87	KSLQSWPYESRNKNSVA	HASTREQ	QQYHRLPLS	GP_HC
1.77 n.d. n.d. 1.75 1.54 1.81	1.71	NFSMSAAEFVNEDSSIA	DAEISYD	QQYHRLPLV	En_Gibbs
0.86 0.84 1.47 0.91 1.32 0.91	1.05	MISQLYNMGQFAINSVA	QASLRND	QQYDRLPLA	En_Gen
-0.19 -0.20 -0.12 -0.46 -0.38 -0.10	-0.24	KSLQSWLYESRNKNSVA	EASTREQ	QQYHRLPLS	GP_HC
-0.20 -0.37 -0.24 -0.27 -0.23 0.10	-0.20	KFPQSVGYQSRNKNSVA	DASTRES	QQYERLPLS	GP_Gibbs
-0.02 0.19 -0.04 -0.01 -0.17 -0.05	-0.02	KLQQSYLYESRNKNSVA	NASTRES	QQYHRLPLS	GP_Gen
0.33 n.d. 1.25 1.38 n.d. 1.14	1.03	KSSQSVLYESENKNSVA	WGSTRES	DQYHRLPLS	Ctrl
-0.17 -0.09 -0.37 -0.38 -0.33 -0.05	-0.23	KSEQSELYESRNKNSVA	NASTRES	QQYHRLPLS	GP_Gen
0.75 0.62 0.51 0.66 0.49 0.69	0.62	RIFYNEEEDLRHKSSIA	NGSARVF	QQYYMLPLS	En_Gibbs

The first 4 entries again:

| CDR-L1 | CDR-L2 | CDR-L3 | group | log10 Kd (nM) by replicate | mean, log10 nM |
|---|---|---|---|---|---|
| KSSKSVLYEMRQKNSVA | NASERED | QTYHRLPLS | Ctrl | 0.56 0.87 0.55 0.80 1.20 1.39 | 0.90 |
| KLEQSHLYESRNKNAVA | NASQRES | QQYHRLPLS | GP_Gen | -0.19 -0.31 -0.57 -0.48 -0.48 -0.23 | -0.38 |
| KFSGSFLYWSRNSNAVA | EASTRES | QDYHRLPLS | GP_Gibbs | 0.60 1.75 0.57 0.38 0.65 0.67 | 0.77 |
| QISLNGWDGEPYEYAVA | EGTIKDA | QQYSRLPLS | En_Gibbs | 1.41 1.39 1.44 1.02 2.02 1.55 | 1.47 |

Of ten entries with the parent sequence, four were seen in most replicates (averages 0.34 to 2.37), three in one and three in none, so single entries are noisy. Empty control strains, which show no peptide, gave a signal in 4% of pairings with all light chain designs; the median was 2.64 and 95% of these signals were weaker than 1.59. No background was subtracted. The range of this assay differs from that of the first round, and the authors advise against merging the two.